From article PMC11368737, “Effects of three flavonoids on the metabolism of lenvatinib” (Frontiers in Pharmacology, 2024)

Key:
[1] = tested on: lenvatinib metabolism (M1 formation) in RLM; assay: Inhibition of lenvatinib metabolism (M1 formation) by flavonoids in rat liver microsomes; details: probe lenvatinib 23.5 μM
[2] = Michaelis-Menten kinetics of lenvatinib in RLM; assay type: in vitro ADME; details: rat, rat liver microsomes; 2–100 μM lenvatinib, 0.3 mg/mL RLM

Km at 30 min [2] [µM]	Structure (SMILES)	IC50 at 30 min [1] [µM]
	O=c1c(O)c(-c2ccc(O)c(O)c2)oc2cc(O)ccc12 [fisetin]	21.8 ± 0.86
23.5 ± 2.17	COc1cc2nccc(Oc3ccc(NC(=O)NC4CC4)c(Cl)c3)c2cc1C(N)=O [lenvatinib, Lenvatinib]	
	O=c1cc(-c2ccc(O)c(O)c2)oc2cc(O)cc(O)c12 [luteolin]	11.4 ± 0.46
